Experiment [1] deals with MDA-MB-436 (mutated BRCA1) cells. As to the kind of experiment: Cell growth inhibition assay (CellTiter-Glo cell viability, 7 days). The note with it: read-out: EC50 MDA-MB-436, MDA-MB-436, 7 days. The text has this:
(§1) The objective of this study is to evaluate the effect of invention compounds on cell proliferation through the cell viability assay in DLD-1 BRCA2(−/−) and parental isogenic pair and MDA-MB-436 (mutated BRCA1) cell lines. The CellTiter-Glo (CTG) based cell viability assay is designed to determine the number of viable cells in the culture because of compound effect, by quantifying ATP, which indicates the presence of metabolically active cells.
(§2) DLD-1 BRCA2(−/−) and parental isogenic pair were cultured in RPMI 1640 supplemented with 10% fetal bovine serum (FBS), and MDA-MB-436 cells were cultured in DMEM supplemented with 10% FBS. Both are culture at 37° C. with 5% CO2. Invention compounds were distributed to the 384 well plate (Corning, 3764) using Echo acoustic liquid handler to form a 1:3 serially diluted final concentration with top dose of 10 or 30 μM. The cells were seeded into the plate in the density of 50 cells/well (DLD-1 parental), 200 cells/well (DLD-1 BRCA2−/−), or 500 cells/well (MDA-MB-436). After a short spun, the cells were cultured in a well moisturized incubator at 37° C. with 5% CO2 for 7 days without disturbance. The cell viability was measured by CellTiter Glo 2.0 assay kit (Promega, G9243), and growth inhibition rate was calculated and plotted against final compound concentration, and the data were fitted in Xfit to generate IC50.

Chains of the proteins cited; added tags and fusions are not shown.
UniProt Q9UGN5, whole entry: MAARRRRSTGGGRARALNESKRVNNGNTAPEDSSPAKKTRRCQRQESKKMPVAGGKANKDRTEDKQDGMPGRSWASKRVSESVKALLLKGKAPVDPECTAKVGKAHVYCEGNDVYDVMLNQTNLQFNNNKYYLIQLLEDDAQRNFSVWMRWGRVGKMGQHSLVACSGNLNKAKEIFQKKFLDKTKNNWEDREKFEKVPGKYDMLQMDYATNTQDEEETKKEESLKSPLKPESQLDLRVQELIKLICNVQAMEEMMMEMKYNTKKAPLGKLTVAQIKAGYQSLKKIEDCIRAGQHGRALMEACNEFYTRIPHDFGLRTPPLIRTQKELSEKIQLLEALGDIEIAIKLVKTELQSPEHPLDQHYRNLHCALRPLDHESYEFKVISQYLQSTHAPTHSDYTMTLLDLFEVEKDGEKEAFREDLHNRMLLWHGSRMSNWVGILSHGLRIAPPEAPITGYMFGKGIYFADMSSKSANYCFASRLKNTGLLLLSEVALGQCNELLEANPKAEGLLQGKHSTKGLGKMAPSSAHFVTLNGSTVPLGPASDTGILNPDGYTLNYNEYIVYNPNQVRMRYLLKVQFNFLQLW
UniProt P09874, whole entry: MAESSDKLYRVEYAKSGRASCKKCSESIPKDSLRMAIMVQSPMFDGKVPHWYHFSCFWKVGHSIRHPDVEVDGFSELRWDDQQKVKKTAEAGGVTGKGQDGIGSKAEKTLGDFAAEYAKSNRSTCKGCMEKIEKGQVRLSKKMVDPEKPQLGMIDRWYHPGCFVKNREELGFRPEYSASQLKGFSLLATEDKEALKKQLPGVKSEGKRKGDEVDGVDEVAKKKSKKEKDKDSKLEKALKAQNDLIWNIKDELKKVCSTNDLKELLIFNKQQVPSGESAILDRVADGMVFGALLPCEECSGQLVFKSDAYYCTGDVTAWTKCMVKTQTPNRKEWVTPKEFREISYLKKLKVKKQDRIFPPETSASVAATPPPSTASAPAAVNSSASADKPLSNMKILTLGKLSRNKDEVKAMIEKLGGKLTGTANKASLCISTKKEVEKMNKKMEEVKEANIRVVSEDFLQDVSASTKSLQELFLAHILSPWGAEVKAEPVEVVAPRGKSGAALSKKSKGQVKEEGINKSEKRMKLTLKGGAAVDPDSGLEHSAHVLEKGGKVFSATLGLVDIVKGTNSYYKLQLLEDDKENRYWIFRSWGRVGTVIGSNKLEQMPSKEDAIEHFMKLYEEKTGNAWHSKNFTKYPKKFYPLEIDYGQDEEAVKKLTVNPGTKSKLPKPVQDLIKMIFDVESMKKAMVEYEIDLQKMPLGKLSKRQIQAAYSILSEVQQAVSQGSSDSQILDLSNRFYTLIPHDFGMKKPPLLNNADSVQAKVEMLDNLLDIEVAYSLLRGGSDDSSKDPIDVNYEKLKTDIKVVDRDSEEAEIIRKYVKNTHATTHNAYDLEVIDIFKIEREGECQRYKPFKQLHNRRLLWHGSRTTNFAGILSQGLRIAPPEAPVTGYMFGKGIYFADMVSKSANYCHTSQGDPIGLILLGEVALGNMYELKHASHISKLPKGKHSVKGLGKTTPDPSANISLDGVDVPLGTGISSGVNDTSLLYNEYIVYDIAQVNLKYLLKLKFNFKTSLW

Experiment [2] deals with DLD-1 BRCA2(−/−) cells. The description is as above. The following applies: read-out: EC50 DLD-1 BRCA2 (—/—).
Description: as §1, §2

Experiment [3] addresses PARP2 (Homo sapiens (Human), UniProt Q9UGN5). As to the kind of experiment: Biochemical fluorescent polarization (FP) assay, displacement of PARPi-FL. The following applies: read-out: IC50 FP PARP2; 20 nM protein, 3 nM PARPi-FL, 4 h at room temperature.
The target in experiment [4] is PARP1 (Homo sapiens (Human), UniProt P09874). Described as above. The note with it: read-out: IC50 FP PARP1; 20 nM protein, 3 nM PARPi-FL, 4 h at room temperature.

SMILES strings stand for the structures.

Regarding `N#Cc1ccc(OC2CN(Cc3cnc4cc(C5CC5)c(=O)[nH]c4c3)C2)cn1`, the results for the EC50 in experiment [1] and in experiment [2] were 14 nM and 63 nM, respectively. Also, the IC50 (commonly the midpoint of a concentration-inhibition curve) is 13000 nM in experiment [3] and 13 nM in experiment [4].
